The nature of series [1]: multiple-dose pharmacokinetic studies in dogs, oral capsule. Particulars: dog, in vivo. On the procedure:
The pharmacokinetic parameters AUC and Cmax from three multiple-dose studies in male and female dogs were compared. The 28-day pharmacokinetic assessments were compared. […] All doses were adjusted for salt form so all doses are in terms of mg base/kg. An aliquot of each unknown, standard and control sample was analyzed on a high performance liquid chromatographic system equipped with a Positive-Ion mass spectrometer detector (condition tabled below in Table 10).

A short description of series [2]: adhesion studies on tablet punches. The series is classed as physicochemical. The following applies: punch wash assayed by HPLC. As for the experimental part: Avicel PH 101 and each (S)-amlodipine salt were pre-screened through a 25-mesh sieve to delump the powders prior to blending. […] Approximately 500 mg was weighed into the ½-inch tablet die, a tablet punch was added and 0.2 metric tons of pressure was applied using a Carver press for 2-3 seconds. The tablet was then removed, and the surfaces of the tablet punches (concave, SRC) were washed with mobile phase (1 mL). The wash was then assayed by HPLC. Three measurements were made for each blend.

With (S)-amlodipine L-malate, the “bioavailability compared to the maleate salt” value in series [1] is listed as “greater bioavailability than the maleate salt”.

On to Succinate, for which the “Adhesion, 5% (S)-Amlodipine salt in Avicel” value in series [2] (5% API blend with Avicel PH 101, 0.2 metric tons) is 1.6E−06 g (S)-amlodipine/cm^2. The “Adhesion, 25% (S)-Amlodipine salt in Avicel” value in series [2] (25% API blend with Avicel PH 101, 0.2 metric tons) was 3.3E−06 g (S)-amlodipine/cm^2.

For the origin of these results see patent US20060030602A1, “(S)-amlodipine malate” (Sepracor Inc., priority 2004, published 2006).
